Test results taken from patent publication US10159740B2, “Compositions with high content of sesamin class compounds” (SUNTORY HOLDINGS LIMITED, priority 2013, dated 2018).

Assay: Crystal deposition of sesamin in oil or fat compositions after storage at 5° C. for a week
Type: physicochemical
Conditions: conclusion from crystal deposition results

## γ-orizanol
  solubility of the sesamin-class compound in the fish oil and/or wheat germ oil: could increase the solubility
